Test results taken from US20220133732A1 (priority 2019, published 2022).

Molecular target: human CAIX (Homo sapiens, UniProt Q16790)
Format: binding
Details: Table 1; peptide ligands on TBMB scaffold; fluorescent ligand A-(SEQ ID NO:1)-A-Sar6-K(FI)

Ac-A-(SEQ ID NO: 3)-A-Sar10-D-K [61-01-02-N004]
Ki: 13.4 nM
